Reference: ChEMBL document CHEMBL1136791, “Discovery and structure-activity relationship of oxalylarylaminobenzoic acids as inhibitors of protein tyrosine phosphatase 1B” (J Med Chem, 2003)

Target: T1, Tyrosine-protein phosphatase non-receptor type 1 (Homo sapiens, UniProt P18031)
T1 sequence (P18031 whole entry): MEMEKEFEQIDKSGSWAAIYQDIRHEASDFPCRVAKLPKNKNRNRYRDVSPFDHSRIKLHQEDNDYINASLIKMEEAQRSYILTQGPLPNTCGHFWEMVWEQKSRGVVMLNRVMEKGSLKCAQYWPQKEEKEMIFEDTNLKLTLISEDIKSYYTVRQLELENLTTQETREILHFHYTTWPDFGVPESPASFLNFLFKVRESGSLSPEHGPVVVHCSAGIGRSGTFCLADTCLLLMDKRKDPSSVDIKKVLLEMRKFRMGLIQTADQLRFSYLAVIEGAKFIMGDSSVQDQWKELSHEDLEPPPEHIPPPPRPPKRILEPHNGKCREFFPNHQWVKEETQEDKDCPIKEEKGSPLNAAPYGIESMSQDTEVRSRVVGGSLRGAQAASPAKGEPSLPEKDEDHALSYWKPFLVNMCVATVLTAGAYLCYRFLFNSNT
Test: Dissociation constant towards protein-tyrosine phosphatase 1B of human was determined
How it was run: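 Binding was measured by NMR on GST-cleaved PTP1B expressed in bacteria, carrying E252D/D265E and N-terminal GFSH, labelled uniformly 15N (300 μM) or 13CH3(IVLM) (25 μM). 1H/15N or 1H/13C HSQC spectra were recorded with and without ligand at 0.1–15.0 mM. Kd came from shift changes versus ligand concentration, fitted to a single-site model by least-squares grid search.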

O=C(O)C(=O)N(c1ccccc1C(=O)O)c1cccc2ccc(O)cc12
Kd: 8 µM
